Results reported in publication PMC4928806, “Hydrogen Peroxide-Resistant CotA and YjqC of Bacillus altitudinis Spores Are a Promising Biocatalyst for Catalyzing Reduction of Sinapic Acid and Sinapine in Rapeseed Meal” (PLoS ONE, 2016).

Tested on: COc1cc(/C=C/C(=O)OCC[N+](C)(C)C)cc(OC)c1O
Experiment: purified protein
Conditions: free enzyme, co-substrate 20 mM H2O2, citrate-phosphate buffer, optimum pH 7.5, 70 °C (temperature and pH of the kinetic runs not stated outright)

Work on YjqC (Bacillus altitudinis) yielded a Km of 1600 µM, a kcat of 5.8 s⁻¹ and a kcat/Km of 4000 M⁻¹ s⁻¹.
